Laboratory results taken from patent EP2810648A1, “Targeting domain-domain interaction for the identification of kinase modulators” (Rauh, Daniel, priority 2013, dated 2014).

Chains of the proteins cited; added tags and fusions are not shown.
UniProt P31749, whole entry E49C/C296S/C310S/C344S: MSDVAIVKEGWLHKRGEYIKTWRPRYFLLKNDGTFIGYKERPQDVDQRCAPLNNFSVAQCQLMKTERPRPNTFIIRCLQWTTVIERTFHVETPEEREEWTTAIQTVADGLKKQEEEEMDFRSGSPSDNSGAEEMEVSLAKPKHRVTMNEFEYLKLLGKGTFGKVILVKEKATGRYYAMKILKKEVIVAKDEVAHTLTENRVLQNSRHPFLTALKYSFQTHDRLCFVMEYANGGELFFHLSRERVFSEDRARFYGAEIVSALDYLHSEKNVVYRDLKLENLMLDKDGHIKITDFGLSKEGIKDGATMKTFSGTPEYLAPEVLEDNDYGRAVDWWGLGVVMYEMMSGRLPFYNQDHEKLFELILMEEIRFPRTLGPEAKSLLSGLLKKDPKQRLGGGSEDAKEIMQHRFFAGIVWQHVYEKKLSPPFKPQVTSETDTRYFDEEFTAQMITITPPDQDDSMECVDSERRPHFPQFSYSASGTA

target: Human Akt1 (UniProt entry P31749) (Homo sapiens, UniProt P31749, C296S/C310S/C344S/E49C); test: iFLiK assay (fluorophore-labeled Akt1 binding assay); settings: not given

SMILES | effect on PyMPO fluorescence (emission spectrum)
O=c1[nH]ccc2nc(-c3ccc(CN4CCC(n5c(=O)[nH]c6cc(Cl)ccc65)CC4)cc3)c(-c3ccccc3)cc12 | the same as with MK-2206

system: ΔPH-Akt1; test: KinEASE activity assay, ΔPH-Akt1; type: biochemical, Human; settings: n.i. = no inhibition up to 200 µM

SMILES | IC50 ΔPH-Akt1
c1ccc(-c2cn(-c3ccccc3)c3ncnc(NCc4cccs4)c23)cc1 | n.i.
Cc1ccc(-n2cc(-c3ccccc3)c3c(NCc4ccccc4)ncnc32)cc1 | n.i.
Fc1ccc(-n2cc(-c3ccccc3)c3c(NCc4ccccn4)ncnc32)cc1 | n.i.
c1ccc(-c2cn(-c3ccccc3)c3ncnc(NCc4cccnc4)c23)cc1 | n.i.
Cc1ccc(-n2cc(-c3ccccc3)c3c(NCc4cccs4)ncnc32)cc1Cl | n.i.
Cc1ccc(-n2cc(-c3ccccc3)c3c(NCc4cccs4)ncnc32)cc1 | n.i.
Cc1cccc(-n2cc(-c3ccccc3)c3c(NCc4cccs4)ncnc32)c1 | n.i.
